Source: EP0944648B1, “GLP-1 DERIVATIVES” (NOVO NORDISK A/S, priority 1996, dated 1998)

Test: Protraction after s.c. administration: plasma concentration in pigs determined by RIA
Assay type: in vivo
Details: 0.5 nmol/kg, healthy pigs, n=2
Method: The protraction of a number GLP-1 derivatives of the invention was determined by monitoring the concentration thereof in plasma after sc administration to healthy pigs, using the method described below. […]. The protraction of other GLP-1 derivatives of the invention can be determined in the same way.
Pigs (50% Duroc, 25% Yorkshire, 25% Danish Landrace, app 40 kg) were fasted from the beginning of the experiment. […]
The assay was carried out as follows: 100 µl plasma was mixed with 271 µl 96% ethanol, mixed using a vortex mixer and centrifuged at 2600*g for 30 min. […] Immediately after the centrifugation, the supernatant was decanted and counted in a γ-counter. The concentration in the samples was calculated from individual standard curves. The following plasma concentrations were found, calculated as % of the maximum concentration for the individual compounds (n=2): Table 1

GLP-1(7-37) [reference compound]
plasma concentration, calculated as % of the maximum concentration for the individual compound (2 hours after sc. administration): 9% | plasma concentration, calculated as % of the maximum concentration for the individual compound (4 hours after sc. administration): 1%
